Experiments:
yeast species = assay: Effect of levulinic acids plus SDS at 21° C. on various yeast species; conditions: for Yeast counts at 0 min: 0 min (delayed by 5 to 10 seconds)
mold species = assay: Effect of levulinic acids plus SDS at 21° C. on various mold species; conditions: for Mold counts at 0 min: 0 min (delayed by 5 to 10 seconds)
[1] = Debaryomyces hansenii, inoculum […] 10^7 CFU/ml
[2] = Geotrichum candidum, inoculum […] 10^7 CFU/ml
[3] = Saccharomyces cerevisiae, inoculum […] 10^7 CFU/ml
[4] = Zygosaccharomyces bailii, inoculum […] 10^7 CFU/ml
[5] = Candida magnoliae, inoculum […] 10^8 CFU/ml
[6] = Penicillium pubeseus, inoculum 6.9 × 10^7 CFU/ml
[7] = Mucor hiemalis, inoculum […] 10^7 CFU/ml
[8] = Penicillium expansum, inoculum […] 10^7 CFU/ml

Row | Structure (SMILES) | Yeast counts at 0 min (yeast species; [1]) [log CFU/ml] | Yeast counts at 1 min (yeast species; [1]) [log CFU/ml] | Yeast counts at 10 min (yeast species; [1]) [log CFU/ml] | Yeast counts at 0 min (yeast species; [2]) [log CFU/ml] | Yeast counts at 1 min (yeast species; [2]) [log CFU/ml] | Yeast counts at 10 min (yeast species; [2]) [log CFU/ml] | Yeast counts at 0 min (yeast species; [3]) [log CFU/ml] | Yeast counts at 1 min (yeast species; [3]) [log CFU/ml] | Yeast counts at 10 min (yeast species; [3]) [log CFU/ml] | Yeast counts at 0 min (yeast species; [4]) [log CFU/ml] | Yeast counts at 1 min (yeast species; [4]) [log CFU/ml] | Yeast counts at 10 min (yeast species; [4]) [log CFU/ml] | Yeast counts at 0 min (yeast species; [5]) [log CFU/ml] | Yeast counts at 1 min (yeast species; [5]) [log CFU/ml] | Yeast counts at 10 min (yeast species; [5]) [log CFU/ml] | Mold counts at 0 min (mold species; [6]) [log CFU/ml] | Mold counts at 1 min (mold species; [6]) [log CFU/ml] | Mold counts at 2 min (mold species; [6]) [log CFU/ml] | Mold counts at 5 min (mold species; [6]) [log CFU/ml] | Mold counts at 10 min (mold species; [6]) [log CFU/ml] | other results
1 | CC(=O)CCC(=O)O [2.0% levulinic acid, levulinic acid] | 4.9 | 4.8 | 4.4 | 4.6 | 4.4 | 4.1 | 5.4 | 5.3 | 5.3 | 5.4 | 5.4 | 5.4 | – | – | – | – | – | – | – | – | –
2 | CCCCCCCCCCCCOS(=O)(=O)[O-].[Na+] [1.0% SDS] | 4.5 | 4.5 | 4.4 | 3.6 | 3.8 | 3.7 | 2.7 | 2.4 | 2.8 | 4.6 | 4.7 | 4.6 | 3.5 | 3.5 | 3.2 | – | – | – | – | – | –
3 | CC(=O)CCC(=O)O [3.0% levulinic acid, levulinic acid] | – | – | – | – | – | – | – | – | – | – | – | – | – | – | – | 5.2 | 4.9 | 4.8 | 5.2 | 4.0 | Mold counts at 20 min (mold species; [6]): 3.2 log CFU/ml; Mold counts at 30 min (mold species; [6]): 2.7 log CFU/ml; Mold counts at 60 min (mold species; [6]): 1.7 log CFU/ml
4 | CCCCCCCCCCCCOS(=O)(=O)[O-].[Na+] [2.0% SDS] | – | – | – | – | – | – | – | – | – | – | – | – | – | – | – | 4.4 | 4.3 | 4.4 | 4.4 | 4.5 | Mold counts at 0 min (mold species; [7]): 6.0 log CFU/ml; Mold counts at 1 min (mold species; [7]): 5.8 log CFU/ml; Mold counts at 2 min (mold species; [7]): 5.8 log CFU/ml; Mold counts at 5 min (mold species; [7]): 6.0 log CFU/ml; Mold counts at 10 min (mold species; [7]): 5.9 log CFU/ml; Mold counts at 20 min (mold species; [7]): 5.8 log CFU/ml; Mold counts at 30 min (mold species; [7]): 5.8 log CFU/ml; Mold counts at 60 min (mold species; [7]): 5.4 log CFU/ml; Mold counts at 0 min (mold species; [8]): 4.2 log CFU/ml; Mold counts at 1 min (mold species; [8]): 4.1 log CFU/ml; Mold counts at 2 min (mold species; [8]): 3.8 log CFU/ml; Mold counts at 5 min (mold species; [8]): 3.4 log CFU/ml; Mold counts at 10 min (mold species; [8]): 3.5 log CFU/ml; Mold counts at 20 min (mold species; [8]): 3.5 log CFU/ml; Mold counts at 30 min (mold species; [8]): 3.5 log CFU/ml; Mold counts at 60 min (mold species; [8]): 3.6 log CFU/ml; Mold counts at 20 min (mold species; [6]): 4.5 log CFU/ml; Mold counts at 30 min (mold species; [6]): 4.4 log CFU/ml; Mold counts at 60 min (mold species; [6]): 4.4 log CFU/ml
5 | CC(=O)CCC(=O)O [2.0% levulinic acids] | – | – | – | – | – | – | – | – | – | – | – | – | 6.0 | 5.9 | 6.0 | – | – | – | – | – | –
6 | CC(=O)CCC(=O)O [3.0% levulinic acids] | – | – | – | – | – | – | – | – | – | – | – | – | – | – | – | – | – | – | – | – | Mold counts at 0 min (mold species; [7]): 6.1 log CFU/ml; Mold counts at 1 min (mold species; [7]): 6.2 log CFU/ml; Mold counts at 2 min (mold species; [7]): 6.2 log CFU/ml; Mold counts at 5 min (mold species; [7]): 6.0 log CFU/ml; Mold counts at 10 min (mold species; [7]): 5.8 log CFU/ml; Mold counts at 20 min (mold species; [7]): 5.1 log CFU/ml; Mold counts at 30 min (mold species; [7]): 4.8 log CFU/ml; Mold counts at 60 min (mold species; [7]): 4.1 log CFU/ml; Mold counts at 0 min (mold species; [8]): 4.3 log CFU/ml; Mold counts at 1 min (mold species; [8]): 4.4 log CFU/ml; Mold counts at 2 min (mold species; [8]): 4.2 log CFU/ml; Mold counts at 5 min (mold species; [8]): 4.0 log CFU/ml; Mold counts at 10 min (mold species; [8]): 3.7 log CFU/ml; Mold counts at 20 min (mold species; [8]): 3.3 log CFU/ml; Mold counts at 30 min (mold species; [8]): 3.3 log CFU/ml; Mold counts at 60 min (mold species; [8]): 2.4 log CFU/ml
